Measurements reported in patent US5602278A (priority 1994, dated 1997).

Tests used:
[1] = system: cell lines which lack the levels of reductive enzymes; details: Mann et al., 1991; cited from earlier work
[2] = system: EMT6 mouse mammary carcinoma cells
[3] = system: CaNT murine adenocarcinoma

O=C(O)CCCc1ccc([N+]([O-])(CCCl)CCCl)cc1
preferential toxicity under hypoxia [1]: not preferentially toxic under hypoxia
toxicity with reducing enzymes under hypoxia [2]: greater toxicity with reducing enzymes under hypoxia
in vivo toxicity to tumor relative to CHL ([3]; CaNT tumor surviving fraction, FIG. 4B): less toxic than CHL
potentiation of in vivo cytotoxicity by hydralazine ([3]; i.p., CHL-HD 200 mg/kg, hydralazine 5 mg/kg): can be potentiated by the administration of hydralazine
in vivo toxicity (In vivo toxicity): minimal in vivo toxicity
